From ChEMBL document CHEMBL1133464, “Ligands for glutamate receptors: design and therapeutic prospects” (J Med Chem, 2000)
pKi: −log10 of the molar value.

Protein sequences, listed by entry. Tags and fused reporters are not part of them. Lines headed by an entry give the natural chain unless they say otherwise; changes in a name come on top.
UniProt Q13255: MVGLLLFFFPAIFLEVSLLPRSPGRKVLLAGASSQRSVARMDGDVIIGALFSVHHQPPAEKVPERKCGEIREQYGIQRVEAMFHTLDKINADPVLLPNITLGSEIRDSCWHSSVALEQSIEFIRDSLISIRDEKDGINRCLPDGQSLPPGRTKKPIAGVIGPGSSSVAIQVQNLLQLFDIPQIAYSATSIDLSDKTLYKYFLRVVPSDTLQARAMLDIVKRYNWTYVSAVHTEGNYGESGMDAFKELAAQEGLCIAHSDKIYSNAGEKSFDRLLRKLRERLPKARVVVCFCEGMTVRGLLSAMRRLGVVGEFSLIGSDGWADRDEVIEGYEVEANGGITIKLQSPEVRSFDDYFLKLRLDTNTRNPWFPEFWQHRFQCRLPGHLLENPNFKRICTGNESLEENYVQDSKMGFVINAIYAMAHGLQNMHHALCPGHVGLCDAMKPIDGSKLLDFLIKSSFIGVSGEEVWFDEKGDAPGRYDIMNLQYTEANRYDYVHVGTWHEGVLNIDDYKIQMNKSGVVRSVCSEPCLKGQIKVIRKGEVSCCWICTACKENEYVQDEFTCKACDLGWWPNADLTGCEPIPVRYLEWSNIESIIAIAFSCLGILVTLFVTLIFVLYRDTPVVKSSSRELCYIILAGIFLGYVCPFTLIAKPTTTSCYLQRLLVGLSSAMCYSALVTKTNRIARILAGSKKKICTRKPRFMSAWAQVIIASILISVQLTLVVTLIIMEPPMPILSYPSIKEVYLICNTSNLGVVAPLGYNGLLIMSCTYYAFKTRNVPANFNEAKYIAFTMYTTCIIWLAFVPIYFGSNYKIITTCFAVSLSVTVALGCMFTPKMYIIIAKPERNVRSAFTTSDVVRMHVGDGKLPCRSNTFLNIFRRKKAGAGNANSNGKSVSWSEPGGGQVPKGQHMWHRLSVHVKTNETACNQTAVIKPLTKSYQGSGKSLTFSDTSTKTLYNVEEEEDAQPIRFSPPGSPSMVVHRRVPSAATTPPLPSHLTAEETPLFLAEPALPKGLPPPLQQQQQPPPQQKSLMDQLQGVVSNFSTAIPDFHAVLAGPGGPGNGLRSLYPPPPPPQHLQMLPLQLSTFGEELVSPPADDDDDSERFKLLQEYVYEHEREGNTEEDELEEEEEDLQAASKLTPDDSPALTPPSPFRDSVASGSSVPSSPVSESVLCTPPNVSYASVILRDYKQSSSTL

Target: Metabotropic glutamate receptor 1 (Homo sapiens, UniProt Q13255)
Test: Agonist potency against cloned human metabotropic glutamate receptor 1
Assay type: functional

Compound N[C@@H](Cn1oc(=O)[nH]c1=O)C(=O)O [QUISQUALATE] has a pKi of 5.96.
